{"sequences": {"note": "Amino acid sequences for entries named in this document (tags omitted). Residues count along the entry.", "UniProt Q00959, 23-1464": "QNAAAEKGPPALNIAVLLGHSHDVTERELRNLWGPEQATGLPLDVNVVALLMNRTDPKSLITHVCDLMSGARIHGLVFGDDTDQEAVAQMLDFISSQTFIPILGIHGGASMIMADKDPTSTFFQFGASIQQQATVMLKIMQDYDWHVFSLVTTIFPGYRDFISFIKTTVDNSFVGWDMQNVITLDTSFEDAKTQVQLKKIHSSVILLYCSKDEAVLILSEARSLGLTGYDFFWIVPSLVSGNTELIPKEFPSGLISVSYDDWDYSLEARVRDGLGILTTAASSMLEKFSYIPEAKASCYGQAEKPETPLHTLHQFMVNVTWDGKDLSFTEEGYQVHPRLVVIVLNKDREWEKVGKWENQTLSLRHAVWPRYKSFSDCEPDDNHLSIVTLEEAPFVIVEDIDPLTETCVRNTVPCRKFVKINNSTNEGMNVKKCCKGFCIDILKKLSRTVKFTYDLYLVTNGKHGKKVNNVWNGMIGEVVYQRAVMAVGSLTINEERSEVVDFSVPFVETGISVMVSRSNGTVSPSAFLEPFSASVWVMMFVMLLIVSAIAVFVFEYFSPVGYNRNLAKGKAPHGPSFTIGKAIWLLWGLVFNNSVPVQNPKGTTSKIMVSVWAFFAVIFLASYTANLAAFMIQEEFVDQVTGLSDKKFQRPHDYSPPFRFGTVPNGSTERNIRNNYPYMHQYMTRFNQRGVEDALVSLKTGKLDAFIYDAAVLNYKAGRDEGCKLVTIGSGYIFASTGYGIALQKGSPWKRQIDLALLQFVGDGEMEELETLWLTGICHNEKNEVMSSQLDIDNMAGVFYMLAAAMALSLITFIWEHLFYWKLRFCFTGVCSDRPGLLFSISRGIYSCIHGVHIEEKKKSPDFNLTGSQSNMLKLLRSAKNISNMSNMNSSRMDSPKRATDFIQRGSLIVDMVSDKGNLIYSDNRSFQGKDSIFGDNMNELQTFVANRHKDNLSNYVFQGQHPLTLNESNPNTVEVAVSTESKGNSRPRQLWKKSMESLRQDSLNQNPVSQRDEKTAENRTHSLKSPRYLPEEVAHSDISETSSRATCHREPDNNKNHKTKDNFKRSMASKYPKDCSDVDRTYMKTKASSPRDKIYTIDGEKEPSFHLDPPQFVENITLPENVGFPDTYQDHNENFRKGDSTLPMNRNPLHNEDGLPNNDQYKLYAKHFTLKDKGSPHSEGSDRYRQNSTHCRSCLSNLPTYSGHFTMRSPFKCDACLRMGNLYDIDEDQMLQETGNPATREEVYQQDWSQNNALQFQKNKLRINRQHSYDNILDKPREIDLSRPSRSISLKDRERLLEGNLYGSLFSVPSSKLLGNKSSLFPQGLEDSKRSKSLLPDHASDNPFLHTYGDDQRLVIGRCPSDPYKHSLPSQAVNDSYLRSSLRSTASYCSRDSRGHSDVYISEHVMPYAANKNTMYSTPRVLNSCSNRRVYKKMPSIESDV", "UniProt Q00960, 27-1482": "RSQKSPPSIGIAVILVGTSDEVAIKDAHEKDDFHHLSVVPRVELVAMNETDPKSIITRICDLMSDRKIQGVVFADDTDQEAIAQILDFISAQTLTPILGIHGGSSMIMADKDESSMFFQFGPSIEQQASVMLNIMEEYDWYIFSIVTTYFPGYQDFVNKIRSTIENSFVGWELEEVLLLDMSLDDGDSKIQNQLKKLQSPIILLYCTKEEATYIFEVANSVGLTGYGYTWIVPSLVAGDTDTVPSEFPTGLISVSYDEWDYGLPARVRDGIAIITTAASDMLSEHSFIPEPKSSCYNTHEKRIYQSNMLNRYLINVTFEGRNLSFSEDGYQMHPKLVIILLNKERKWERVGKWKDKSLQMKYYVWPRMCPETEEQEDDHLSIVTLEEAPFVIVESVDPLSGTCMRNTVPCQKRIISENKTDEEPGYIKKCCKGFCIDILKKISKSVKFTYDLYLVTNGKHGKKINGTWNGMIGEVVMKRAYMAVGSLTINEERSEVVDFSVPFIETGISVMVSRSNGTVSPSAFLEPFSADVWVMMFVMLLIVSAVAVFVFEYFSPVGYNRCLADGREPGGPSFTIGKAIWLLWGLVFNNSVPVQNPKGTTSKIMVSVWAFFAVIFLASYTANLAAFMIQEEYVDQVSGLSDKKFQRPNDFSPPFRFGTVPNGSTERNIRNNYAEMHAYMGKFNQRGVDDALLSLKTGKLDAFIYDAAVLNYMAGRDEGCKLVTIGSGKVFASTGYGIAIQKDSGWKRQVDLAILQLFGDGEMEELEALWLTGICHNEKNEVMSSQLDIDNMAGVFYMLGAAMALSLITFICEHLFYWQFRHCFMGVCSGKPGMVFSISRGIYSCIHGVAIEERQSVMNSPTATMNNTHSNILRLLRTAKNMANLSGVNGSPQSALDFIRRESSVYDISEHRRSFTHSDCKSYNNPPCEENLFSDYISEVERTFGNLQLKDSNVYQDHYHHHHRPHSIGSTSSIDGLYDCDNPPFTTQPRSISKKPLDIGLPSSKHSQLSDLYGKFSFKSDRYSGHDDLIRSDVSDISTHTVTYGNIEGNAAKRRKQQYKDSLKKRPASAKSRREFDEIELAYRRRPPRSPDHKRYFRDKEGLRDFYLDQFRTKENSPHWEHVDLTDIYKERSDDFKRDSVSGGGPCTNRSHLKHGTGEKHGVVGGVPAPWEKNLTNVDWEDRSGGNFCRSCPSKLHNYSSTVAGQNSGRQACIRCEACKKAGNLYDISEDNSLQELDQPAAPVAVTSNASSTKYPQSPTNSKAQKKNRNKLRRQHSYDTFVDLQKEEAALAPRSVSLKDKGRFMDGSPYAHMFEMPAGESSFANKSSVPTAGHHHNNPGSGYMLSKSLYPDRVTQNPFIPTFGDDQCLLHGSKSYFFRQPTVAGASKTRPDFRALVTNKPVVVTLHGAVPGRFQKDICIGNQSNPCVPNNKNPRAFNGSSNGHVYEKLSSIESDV"}, "source": "paper PMC3977474", "about": "“Cerebrovascular and Neuroprotective Effects of Adamantane Derivative” (BioMed Research International, 2014)", "biological_target": "T1, NMDA receptor (Rattus norvegicus, UniProt P35439+Q00959+Q00960)", "T1 construct": "gene Grin1; native receptor in rat hippocampal membranes", "assay": "[3H]-MK-801 radioligand displacement, rat hippocampal membranes", "format": "binding"}
{"molecule": "CC12CC3CC(C)(C1)CC(N)(C3)C2", "note": "[memantine]", "values": [{"measurement": "IC50", "value": 1140, "unit": "nM"}]}
